Measured values published in ChEMBL document CHEMBL3085675, “8-(2-Furyl)adenine derivatives as A₂A adenosine receptor ligands” (Eur J Med Chem, 2013).

Key:
Homo sapiens [1] = species on record: Homo sapiens; assay: Selectivity ratio of Ki for human recombinant adenosine A2B receptor to Ki for human recombinant adenosine A2A receptor
Homo sapiens [2] = species on record: Homo sapiens; assay: Selectivity ratio of Ki for human recombinant adenosine A3 receptor to Ki for human recombinant adenosine A2A receptor

Cn1c(-c2ccco2)nc2c(N)ncnc21
Ratio Ki (Homo sapiens [1]): 105
Ratio Ki (Homo sapiens [2]): 856
